Experimental data as given in patent publication US20250213563A1, “SUBSTITUTED PYRIMIDIN-4(3H)-ONES FOR USE IN TREATING CANCER” (NAVIRE PHARMA, INC., priority 2021, published 2025).

Chains of the proteins cited; added tags and fusions are not shown. Lines headed by an entry give the natural chain unless they say otherwise; changes in a name come on top.
UniProt Q12809: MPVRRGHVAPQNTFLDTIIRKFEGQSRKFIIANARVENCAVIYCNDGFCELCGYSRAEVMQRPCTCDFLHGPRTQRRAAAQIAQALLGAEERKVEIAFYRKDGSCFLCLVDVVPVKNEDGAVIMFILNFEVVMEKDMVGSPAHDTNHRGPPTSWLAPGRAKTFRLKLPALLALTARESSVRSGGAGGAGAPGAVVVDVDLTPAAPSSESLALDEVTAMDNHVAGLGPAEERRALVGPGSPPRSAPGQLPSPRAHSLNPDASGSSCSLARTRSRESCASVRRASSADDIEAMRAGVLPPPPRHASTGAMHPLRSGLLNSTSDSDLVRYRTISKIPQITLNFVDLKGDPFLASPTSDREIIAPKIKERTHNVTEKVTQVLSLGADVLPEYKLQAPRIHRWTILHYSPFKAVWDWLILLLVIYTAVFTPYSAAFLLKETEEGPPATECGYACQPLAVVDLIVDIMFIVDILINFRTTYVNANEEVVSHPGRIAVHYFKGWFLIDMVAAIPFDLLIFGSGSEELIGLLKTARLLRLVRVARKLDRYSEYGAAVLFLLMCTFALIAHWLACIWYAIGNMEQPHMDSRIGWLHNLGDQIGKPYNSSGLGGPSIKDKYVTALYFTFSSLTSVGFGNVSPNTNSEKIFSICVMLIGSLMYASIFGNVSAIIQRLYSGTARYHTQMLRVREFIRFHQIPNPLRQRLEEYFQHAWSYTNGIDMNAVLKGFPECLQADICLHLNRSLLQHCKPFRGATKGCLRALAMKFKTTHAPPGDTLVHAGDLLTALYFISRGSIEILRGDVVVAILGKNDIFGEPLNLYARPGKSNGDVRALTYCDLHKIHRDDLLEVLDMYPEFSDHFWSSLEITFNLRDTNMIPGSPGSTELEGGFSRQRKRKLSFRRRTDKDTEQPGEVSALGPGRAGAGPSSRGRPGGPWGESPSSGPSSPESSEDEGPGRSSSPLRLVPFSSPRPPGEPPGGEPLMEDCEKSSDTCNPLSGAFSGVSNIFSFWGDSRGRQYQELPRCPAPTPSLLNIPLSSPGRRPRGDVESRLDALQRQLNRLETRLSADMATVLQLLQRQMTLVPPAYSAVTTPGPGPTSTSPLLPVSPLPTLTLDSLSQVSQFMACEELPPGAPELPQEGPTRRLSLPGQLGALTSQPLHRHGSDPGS

Biological target: hERG potassium channel (Homo sapiens, UniProt Q12809)
Conditions: 0.1 μM

With `COc1cc(N)c(Cl)cc1C(=O)NC1CCN(CCCOc2ccc(F)cc2)CC1OC` (stereo not shown) [cisapride] as the compound, how does the “inhibition of hERG current” value read?
The value was > 50%.
